Measurements from patent US8168592B2 (Amgen Inc., priority 2005, dated 2012).

The chains behind the UniProt entries cited, without tags or fusion partners. Residues count along the entry.
UniProt Q63118, 24-464: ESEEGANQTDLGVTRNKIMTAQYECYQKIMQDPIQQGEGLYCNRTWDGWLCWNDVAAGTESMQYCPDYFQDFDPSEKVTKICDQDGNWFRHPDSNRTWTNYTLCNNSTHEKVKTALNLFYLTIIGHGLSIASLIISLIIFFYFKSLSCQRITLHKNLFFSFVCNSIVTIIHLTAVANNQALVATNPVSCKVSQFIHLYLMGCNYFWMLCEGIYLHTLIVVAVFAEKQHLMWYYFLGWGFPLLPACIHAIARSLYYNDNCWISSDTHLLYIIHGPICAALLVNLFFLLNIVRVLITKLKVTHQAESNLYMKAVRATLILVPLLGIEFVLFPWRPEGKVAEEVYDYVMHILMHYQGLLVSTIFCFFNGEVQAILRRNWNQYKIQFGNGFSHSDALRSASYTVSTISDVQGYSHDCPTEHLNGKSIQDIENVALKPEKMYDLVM
UniProt Q9JJ74, 27-148: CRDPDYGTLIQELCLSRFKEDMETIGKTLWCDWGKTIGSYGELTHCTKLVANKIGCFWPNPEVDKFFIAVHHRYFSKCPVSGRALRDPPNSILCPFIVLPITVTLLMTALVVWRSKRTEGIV

Biological target: T1, CGRP1 receptor (Rattus norvegicus, UniProt Q63118+Q9JJ74)
T1 construct: intradermal injection of hCGRP within a small, defined area of abdominal skin produced a 30-40% increase in local blood flow; from tissue; host or cells: living anaesthetised rat, abdominal skin
Experiment: laser Doppler blood flowmetry assay (hαCGRP-induced skin blood flow)
Assay type: in vivo
Conditions: i.v., pre-treatment 5 minutes, 5 mg/kg
Method: Methods. An automated laser Doppler blood flowmetry device is used (MoorLDI®; Moor Instrument, Devon, UK). The device was turned on prior to the start of experiments and allowed to warm up for 20 minutes. Blood flow data (in FLUX) were read from software records (see below).
For each rat, the experimental procedure was performed within a single day and was each rat was sacrificed on the same day immediately after the experiment was over. On an experiment day, each rat was weighed and administered 1 ml/kg (intramuscular injection in right leg) of an anesthetic cocktail consisting of Ketamine, Xylazine and PBS (5:3:2). […] The animal was then ready for the experiment.
Approximately 20 min after the injection of the anesthetic cocktail, baseline blood flow readings were collected for each animal. […]
After completion of baseline scanning, the rat was removed from the device. […] After a pre-determined interval, based on pharmacokinetic characteristics of the relevant CGRP peptide antagonist, agonist (human αCGRP; 0.1 μg, 50 μL; interdermal) was injected such that the point of entry of the needle (30 gauge) was remote from the marker dot but the intradermal injection bolus was centered under the dot. […]
In some cases, plasma IC50 values were calculated by performing least squares linear regression on log plasma concentration values (nM) vs. % change in blood flow values calculated for individual rats.

Efficacy observed (%) (at highest dose tested): 100%
SMILES: CC(=O)N[C@@H](Cc1c[nH]c2ccccc12)C(=O)N[C@H](C(=O)N[C@H](C(=O)N[C@@H](Cc1c[nH]cn1)C(=O)N[C@@H](CCCNC(N)=O)C(=O)N[C@@H](CC(C)C)C(=O)N[C@@H](C)C(=O)NCC(=O)N[C@@H](CC(C)C)C(=O)N[C@@H](CC(C)C)C(=O)N[C@@H](CO)C(=O)N[C@@H](CCCNC(N)=O)C(=O)N[C@@H](CO)C(=O)NCC(=O)NCC(=O)N[C@H](C(=O)N[C@H](C(=O)N[C@@H](CCCNC(=N)N)C(=O)N[C@@H](CCCCN)C(=O)N[C@@H](CC(N)=O)C(=O)N[C@@H](Cc1ccccc1)C(=O)N[C@H](C(=O)N1CCC[C@H]1C(=O)N[C@H](C(=O)N[C@@H](CC(=O)O)C(=O)N[C@H](C(=O)NCC(=O)N1CCC[C@H]1C(=O)N[C@@H](Cc1ccccc1)C(=O)N[C@@H](C)C(=O)N[C@@H](Cc1ccccc1)C(N)=O)C(C)C)[C@@H](C)O)C(C)C)C(C)C)C(C)C)[C@@H](C)O)C(C)C [Compound 31]
